Experimental data: ChEMBL document CHEMBL1131063 (J Med Chem, 1998)

Tested on: Phospholipase A2 (Naja naja)
Experiment: Inhibitory activity against naja naja secretory Phospholipase A2 at 10 uM
Settings: snake

**Q.** For `CC(C)=CCC/C(C)=C/CC/C(C)=C/CC1=CCC(C2=CC(=O)OC2O)OC1` (stereo unspecified), which inhibition is on record?
**A.** 17.7%
